Laboratory results as given in patent US12172946B2, “Compound containing diphenylmethane structure and use thereof” (GUANGZHOU TROJAN PHARMATEC LTD., priority 2019, dated 2024).

Assay: solubility of the compound in common solvents
Format: physicochemical
Conditions: 25-30° C.
Experimental: The solubility of the compound of the present invention in common solvents was investigated (25-30° C.), and the results are shown in Table 1. It can be seen from Table 1 that the compound of the present invention has good solubility in all of heptane, isopropyl acetate (i-PrOAc), methyl tert-butyl ether (MTBE) and N,N-dimethylformamide (DMF), and particularly, the solubility in N,N-dimethylformamide is much higher than Comparative Examples.

Q: Which “solubility in DMSO” value (DMSO) does the source give for “(2-(2-(3,4,5-tri(isomeric tridecyloxy)-benzamido)-ethoxy)-ethoxy)-4-methoxy-benzylamine [DPA-025]” here?
A: <1%

Q: What about the “solubility in MeOH” value (MeOH) of the same substance?
A: <1%

Q: And the “solubility in DMF” value (N,N-dimethylformamide)?
A: >100%

Q: And the “solubility in Heptane” value (heptane)?
A: >100%

Q: What about the “solubility in i-PrOAc” value (isopropyl acetate) of the same substance?
A: >100%

Q: What about the “solubility in MTBE” value (methyl tert-butyl ether) of the same substance?
A: >100%
